Test results taken from PubChem BioAssay (Tox21).
Several values for one entry are separate records, joined by “and”; a condition that tells them apart may be missing. Equal values may be shown once. The entries are a selection whose mix differs from that of the whole data set. Inconclusive results are not listed. Activity calls are given as the source filed them. The call rests on the fitted dose curve.

Experiment: p53 small molecule agonists, cell-based qHTS assay: qHTS cell viability counter screen (AID 1963581); further: nearly all actives have a fitted effect of over 45% in size
Conditions: p53RE-bla HCT-116 viability, ATP luminescence, 16 h; at 66 µM (top of the series) unless noted
Source text: National Center for Advancing Translational Sciences [NCATS]
Division of Preclinical Innovation [DPI]
U.S. Environmental Protection Agency [EPA]
National Institutes of Environmental Health Sciences [NIEHS]
National Toxicology Program [NTP]
U.S. Food and Drug Administration [FDA]
p53, a tumor suppressor protein, is activated following cellular insult, including DNA damage and other cellular stresses. The activation of p53 regulates cell fate by inducing DNA repair, cell cycle arrest, apoptosis, or cellular senescence. The activation of p53, therefore, is a good indicator of DNA damage and other cellular stresses. The CellSensor p53RE-bla HCT-116 cell line (Invitrogen) contains a stably integrated beta-lactamase reporter gene under control of the p53 response elements. The activation of the reporter gene under culture conditions can be detected by fluorescence intensity. This cell line was used to screen the Tox21 compound library in a 1536-well plate format and to identify agonists that activate the p53 signaling pathway. The cytotoxicity of the Tox21 compound library against the p53 RE-bla HCT-116 cell line was tested in parallel by measuring the intra cellular ATP content in the same wells.
Tox21 Assay Protocol Summary:
The p53RE-bla cells were dispensed at 4,000 cells/5 ul/well in 1536-well black wall/clear bottom plates using a Multidrop dispenser. After the assay plates were incubated at a 37 C/5% CO2 incubator for 5 hours, 23 nL of compounds dissolved in DMSO, positive controls or DMSO only was transferred to the assay plate by a pin tool. The plates were incubated at 37 C for 16 hours. After 1 uL of LiveBLAzerTM B/G FRET substrate was added using a Flying Reagent Dispenser, the plates were incubated at room temperature for 2 hours, and fluorescence intensity was measured by an Envision plate reader. For cell viability readout that measures cytotoxicity, 4 ul/well of CellTiter-Glo reagent was added into the assay plates using a Flying Reagent Dispenser. After 30 min incubation at room temperature, the luminescence intensity in the plates was measured using a ViewLux plate reader.
On the % scale 0 is the no-effect control and ±100 the full control effect.

Row | SMILES | activity change, negative = cytotoxicity
1 | CC(C)N(CCO)C(C)C | inactive: 5.8%
2 | CCN(CC)CCCl | inactive: 25.3%
3 | CN(C)CCCl | inactive: -1.57%
4 | COP(C)(=O)OC | inactive: 6.93% and inactive: 10.7%
5 | N#CBr | inactive: -1.4%
6 | CCOP(=O)(CC)Oc1ccc([N+](=O)[O-])cc1 (stereo not given) | inactive: -11.4% [at 30.3 µM]
7 | CC(C)OP(C)(=O)OC(C)C | inactive: -8.46% and inactive: -22.1%
8 | OCCSCCO | inactive: 4.14% [at 30.3 µM]
9 | O=[N+]([O-])[O-].[NH4+] | inactive: 2.41% and inactive: -0.62%
10 | Cc1ccc([N+](=O)[O-])cc1[N+](=O)[O-] | inactive: 1.34% and inactive: -11.6%
11 | Cc1ccc([N+](=O)[O-])c([N+](=O)[O-])c1 | inactive: 1.76% and inactive: 14.8%
12 | O=[N+]([O-])OCC(CO[N+](=O)[O-])(CO[N+](=O)[O-])CO[N+](=O)[O-] | inactive: 0.09%
13 | Nc1cc([N+](=O)[O-])cc([N+](=O)[O-])c1O | inactive: -15.6%
14 | C/C1=C2N=C(/C=C3N=C(/C(C)=C4\[N-][C@@](C)([C@@H]5N=C1[C@](C)(CCC(=O)NC[C@@H](C)OP(=O)([O-])O[C@H]1[C@@H](O)[C@@H](n6cnc7cc(C)c(C)cc76)O[C@@H]1CO)[C@H]5CC(N)=O)[C@@](C)(CC(N)=O)[C@@H]4CCC(N)=O)[C@@](C)(CC(N)=O)[C@@H]\3CCC(N)=O)C(C)(C)[C@@H]/2CCC(N)=O.[C-]#N.[Co+3] | inactive: -2.48% [at 30.3 µM]
15 | CP(=O)(O)OCCC[Si](O)(O)O | inactive: -8.84%
16 | COc1ccc([N+](=O)[O-])cc1[N+](=O)[O-] | inactive: 6.17%
17 | [NH4+].[O-][Cl+3]([O-])([O-])[O-] | inactive: -0.547% and inactive: -14.3%
18 | CCOP(=O)(CC)OCC | inactive: 0.595%
19 | N=C(N)N[N+](=O)[O-] | inactive: 4.43%
20 | Cc1c([N+](=O)[O-])cccc1[N+](=O)[O-] | inactive: -12.8% and inactive: -2.54%
